Source: patent US8633226B2, “Piperidinyl derivative as a modulator of chemokine receptor activity” (Bristol-Myers Squibb Company, priority 2008, dated 2014)

The chains behind the UniProt entries cited, without tags or fusion partners.
UniProt O75469, whole entry: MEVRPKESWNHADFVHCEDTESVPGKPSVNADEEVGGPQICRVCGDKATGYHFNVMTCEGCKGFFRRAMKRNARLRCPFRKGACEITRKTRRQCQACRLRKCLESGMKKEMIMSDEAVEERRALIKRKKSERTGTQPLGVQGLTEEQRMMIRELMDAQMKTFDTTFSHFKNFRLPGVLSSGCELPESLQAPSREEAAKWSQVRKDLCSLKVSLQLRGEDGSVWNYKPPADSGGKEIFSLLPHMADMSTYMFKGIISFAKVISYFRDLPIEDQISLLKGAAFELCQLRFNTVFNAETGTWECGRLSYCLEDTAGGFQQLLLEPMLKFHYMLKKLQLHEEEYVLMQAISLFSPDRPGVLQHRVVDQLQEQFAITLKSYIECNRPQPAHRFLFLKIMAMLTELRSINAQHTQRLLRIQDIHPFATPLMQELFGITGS

What was measured:
Human PXR = Human PXR (Homo sapiens (Human), UniProt O75469); assay: PXR transactivation assay; settings: HepG2 cells, CYP3A-Luc reporter; reported as EC20
[1] = In vitro metabolism assay, human liver microsomes, Assay Conditions A; settings: 0.5 μM compound, 10 minutes, 37° C.
Description: Test compound is received as a 3.5 mM stock solution in 100 percent DMSO. Compound is diluted to create a 50 μM acetonitrile (ACN) solution containing 1.4% DMSO, which is then used as a 100× stock for incubation with microsomes. Each compound is tested in duplicate separately in each of three species in the Metabolic Stability-Human, Rat, and Mouse assay suite or as individual species in the Metabolic Stability-Dog or Metabolic Stability-Monkey suites. Compound, NADPH and liver microsome solutions are combined for incubation in three steps:
152 μL of liver microsome suspension, protein concentration of 1.1 mg/mL in 100 mM NaPi, pH 7.4, 6.6 mM MgCl2 buffer, is pre-warmed at 37° C.
• 1) 1.7 μL of 50 μM compound (98.6% ACN, 1.4% DMSO) is added to the same tube and pre-incubated at 37° C. for 5 minutes. • 2) The reaction is initiated by the addition of 17 μL of pre-warmed 10 mM NADPH solution in 100 mM NaPi, pH 7.4. • 3) Reaction components are mixed well, and 75 μL are immediately transferred into 150 μl quench/stop solution (zero-time point, T0). Reactions are incubated at 37° C. for 10 minutes and then an additional 75 μL aliquot is transferred into 150 μL quench solution. […]

PXR EC20 (Human PXR): 1900 nM
Human Liver Microsomal Metabolism % remaining (Assay Conditions A) [1]: 13% (A)
Structure (SMILES): CC(C)COC(=O)N[C@@H](C(=O)N1CC[C@](O)(c2ccc(Cl)cc2)C(C)(C)C1)C(C)C
